Measurements from PMC5668434, “Modulation of telomere protection by the PI3K/AKT pathway” (Nature Communications, 2017).

By UniProt entry, the sequences of proteins in these tests, tags left out.
UniProt P42336, whole entry: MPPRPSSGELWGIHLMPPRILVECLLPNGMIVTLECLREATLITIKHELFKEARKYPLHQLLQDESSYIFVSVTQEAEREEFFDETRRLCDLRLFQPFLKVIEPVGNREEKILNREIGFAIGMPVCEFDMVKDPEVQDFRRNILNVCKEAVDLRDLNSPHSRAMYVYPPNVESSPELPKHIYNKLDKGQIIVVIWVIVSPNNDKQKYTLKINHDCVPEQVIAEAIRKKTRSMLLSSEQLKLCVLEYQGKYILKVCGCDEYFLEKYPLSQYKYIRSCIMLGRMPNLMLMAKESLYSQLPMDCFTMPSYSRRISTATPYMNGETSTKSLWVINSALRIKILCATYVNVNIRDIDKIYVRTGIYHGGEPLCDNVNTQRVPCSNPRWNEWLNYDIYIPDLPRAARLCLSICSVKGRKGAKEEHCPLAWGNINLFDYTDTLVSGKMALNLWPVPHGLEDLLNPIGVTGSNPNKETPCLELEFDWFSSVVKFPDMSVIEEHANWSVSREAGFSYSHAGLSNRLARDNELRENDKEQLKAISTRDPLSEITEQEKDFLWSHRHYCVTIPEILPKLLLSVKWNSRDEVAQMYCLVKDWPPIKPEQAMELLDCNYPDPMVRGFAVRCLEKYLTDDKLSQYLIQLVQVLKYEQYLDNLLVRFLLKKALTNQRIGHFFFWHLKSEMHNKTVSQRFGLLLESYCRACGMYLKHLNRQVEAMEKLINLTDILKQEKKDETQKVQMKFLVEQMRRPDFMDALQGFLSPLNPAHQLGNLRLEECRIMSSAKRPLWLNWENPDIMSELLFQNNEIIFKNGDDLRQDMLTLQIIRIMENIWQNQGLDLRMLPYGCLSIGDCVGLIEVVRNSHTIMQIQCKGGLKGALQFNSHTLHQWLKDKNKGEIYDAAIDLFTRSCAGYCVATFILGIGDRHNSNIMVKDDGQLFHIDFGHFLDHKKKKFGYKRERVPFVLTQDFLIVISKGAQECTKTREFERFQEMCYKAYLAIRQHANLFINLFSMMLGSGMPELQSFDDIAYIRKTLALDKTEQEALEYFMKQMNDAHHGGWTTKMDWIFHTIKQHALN

Columns and labels:
PI3K (p110α) = target: T1, PI3K (p110α) (Homo sapiens, UniProt P42336); experiment: PI3K alpha biochemical assay (ADP Hunter Plus); settings: internal data; read-out: PI3Kα IC50
T1 construct: purchased Cama Biosciences (sic; Carna Biosciences) #07CBS-0402A

mTOR (FRAP1) = target: T2, mTOR (FRAP1) (Homo sapiens, UniProt P42345); experiment: mTOR biochemical assay (LanthaScreen)
T2 construct: purchased ThermoFisher PV4753

SMILES	IC50 (PI3K (p110α))	mTOR inhibition (in words) (mTOR (FRAP1))
COCCNC(=O)c1nc2c(N3CCOCC3)nc(-c3cnc(N)nc3)cn2c1C [ETP-46992]	0.9 nM	–
COc1ncc(-c2ccc3nccc(-c4ccnnc4)c3c2)cc1NS(=O)(=O)c1ccc(F)cc1F [GSK-2126458]	–	potent nanomolar mTOR inhibition
